# scFv variants of Ab-14 (light chain) against a SARS-CoV-2 spike peptide

Target peptide (SARS-CoV-2 spike, HR2 region): PDVDLGDISGINAS

The variants keep the heavy chain, the linker and the frameworks of Ab-14 (scFv order VH, a (GGGGS)3 linker, VL).
VH: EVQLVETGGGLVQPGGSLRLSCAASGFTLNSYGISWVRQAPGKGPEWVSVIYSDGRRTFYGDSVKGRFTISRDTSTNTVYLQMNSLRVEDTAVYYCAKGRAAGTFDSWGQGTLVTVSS
VL: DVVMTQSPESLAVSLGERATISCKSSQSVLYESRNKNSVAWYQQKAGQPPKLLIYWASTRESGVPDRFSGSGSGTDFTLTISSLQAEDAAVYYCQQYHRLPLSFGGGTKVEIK

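Phage display of a naive human antibody library on the peptide gave the parent. Variants in AAYL50 differ from the parent at up to three CDR positions; double and triple changes were sampled at random. Affinity was read by AlphaSeq, a pooled yeast mating assay with surface-displayed partners. After mating in shaken culture at 30 °C for 16 h, diploids were selected and their barcode pairs sequenced. Scores were corrected for input abundance and mapped to Kd with protein pairs of known affinity run in the same pool. Mating was done three times.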

Changes read parent residue, position, new residue, counted from the first residue of the VL shown.
Values are log10 of the apparent Kd in nM; lower means stronger binding.
An entry "nd" has no value in the source: the pair was not observed among the diploids in that replicate. This suggests poor binding but is not conclusive.
Nonspecific signal, from three strains lacking the peptide, appeared in 18% of pairings of library AAYL50, centred on 4.19 (5% of these signals below 2.99); values are not corrected for it. For each scFv, signals with the empty controls are counted beside the result, with their mean in brackets.

changes,"log10 Kd, replicates",signal with controls
S26K/V29W/S103M,0.59 / 1.11 / 1.00,2 of 9 (4.11)
K24H/S38F/P101N,1.75 / 1.90 / 1.86,3 of 9 (4.08)
S25R/H98W/L100F,2.31 / 1.97 / 2.41,1 of 9 (4.18)
K24V/S33R/A57C,3.88 / 3.39 / 3.94,8 of 9 (4.43)
S28I/Y31W/K36L,1.46 / 1.49 / 1.50,2 of 9 (4.97)
V39R/T59P/E61H,nd / 5.36 / nd,1 of 9 (4.72)
W56L/S58W/S103W,nd / nd / nd,0 of 9
T59N/Y97V/L100S,nd / 4.49 / nd,3 of 9 (4.51)
R34I/K36W/R99H,1.10 / 1.16 / 1.05,1 of 9 (4.15)
Y31Q/N35L/S62D,0.61 / 0.82 / 0.64,2 of 9 (3.64)
S25C/V39P/S58V,nd / nd / nd,0 of 9
K24Y/Q96R/Y97E,2.16 / 1.95 / 2.10,5 of 9 (4.98)
S38C/A40Y,nd / 3.92 / nd,2 of 9 (4.72)
W56M/R99N/L102V,2.92 / 2.72 / nd,1 of 9 (2.85)
K24Q/V39R/R99I,nd / 4.27 / nd,2 of 9 (3.68)
S28D/Q95N/R99N,nd / nd / nd,0 of 9
V39H/R60P/S62Y,3.49 / nd / 5.69,2 of 9 (3.97)
L30P/W56D/E61N,0.50 / 0.80 / 0.54,6 of 9 (4.14)
S25M/Y31A/E32L,-0.01 / 0.38 / 0.39,0 of 9
E32S/S38F/S58E,nd / 4.25 / nd,1 of 9 (3.24)

Second part, the sequence after the result:

"log10 Kd, replicates",signal with controls,changes
nd / 2.17 / nd,0 of 9,V29K/K36I/A57E
4.54 / nd / 4.33,1 of 9 (4.01),L30K/R60K/L100A
0.69 / 0.88 / 0.89,2 of 9 (5.08),Q27K/L100F/P101W
3.37 / nd / nd,3 of 9 (4.45),N37E/E61L/Q96T
0.12 / 0.45 / 0.36,0 of 9,R34H/V39I/S103F
nd / 3.61 / 3.68,0 of 9,S58L/S103E
nd / nd / 5.23,2 of 9 (4.26),K24W/S26E/S28C
nd / nd / nd,3 of 9 (3.73),A57F/Q96N
nd / 3.39 / nd,3 of 9 (4.61),N37P/A40H
1.65 / 1.79 / 1.93,0 of 9,S28H/N35I/S62H
3.14 / 3.72 / 2.90,1 of 9 (4.46),S26P/N37L/Q96I
0.23 / 0.50 / 0.37,7 of 9 (5.29),E32H/S33Q/W56G
nd / nd / nd,0 of 9,K36L/S38V/R99C
2.11 / 2.43 / 1.46,0 of 9,R34G/H98R/S103H
0.61 / 0.86 / 0.75,0 of 9,V29Y/R34D/S103I
1.66 / 1.86 / 1.87,0 of 9,Q27K/T59L/L100P
4.73 / 3.06 / nd,0 of 9,S25H/T59P/E61G
6.43 / nd / 4.73,2 of 9 (4.28),K24F/S33E/Y97V
-0.08 / 0.48 / 0.17,3 of 9 (5.79),S25M/T59N
0.65 / 1.47 / 1.20,1 of 9 (2.79),K24F/L102N/S103R
nd / nd / nd,2 of 9 (4.55),V39P/R60T/Q95P

The 6 strongest on average among those seen in every replicate, once more:

changes,"log10 Kd, replicates",signal with controls
S25M/T59N,-0.08 / 0.48 / 0.17,3 of 9 (5.79)
S25M/Y31A/E32L,-0.01 / 0.38 / 0.39,0 of 9
R34H/V39I/S103F,0.12 / 0.45 / 0.36,0 of 9
E32H/S33Q/W56G,0.23 / 0.50 / 0.37,7 of 9 (5.29)
L30P/W56D/E61N,0.50 / 0.80 / 0.54,6 of 9 (4.14)
Y31Q/N35L/S62D,0.61 / 0.82 / 0.64,2 of 9 (3.64)

Values reported by Engelhart et al. 2022, doi:10.1038/s41597-022-01779-4 (FLAb copy).